# Measurements from US20220324925A1, “THERAPEUTIC PEPTIDES” (COHBAR, INC., priority 2019, published 2022).
# System: MCF-7 cells
# Assay: Cell viability, MTS Assay in MCF-7 Cells
# Details: staurosporine 10 uM, positive control
smiles,measurement,value
"CN[C@@H]1C[C@H]2O[C@@](C)([C@@H]1OC)n1c3ccccc3c3c4c(c5c6ccccc6n2c5c31)C(=O)NC4 [staurosporine, reference compound]","Cell viability, % of the background corrected DMSO control value",< 5%
